The entries are a selection whose mix differs from that of the whole data set. Some structures show a salt or complex split into parts, the way the source records it. Activity calls are given as the source filed them.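 The calls were made as follows: active = delta delta Cp rounded down to an integer at or above 3, about 3 SD of DMSO wells; inactive = the rest.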

This experiment in a line: YB-1 transcript reduction by qRT-PCR – cell-based, fluorescence, primary screen (AID 434959).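 Also: higher means less YB-1 transcript or more CDIP transcript relative to DMSO.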 The note with it: U2OS, qRT-PCR YB-1 vs CDIP delta delta Cp, 16 h; hits give high values; zero = DMSO, each unit about twofold. On the technique in general: Quantitative PCR measures a nucleic acid by following its amplification.
For the compound `CN(C(=O)Cc1ccc(Cl)c(Cl)c1)[C@H]1CCCC[C@@H]1N1CCCC1`, the delta Cp (YB-1 minus CDIP) is inactive: -0.131.

For the compound `COc1cc2c(cc1NP(C)(=O)Oc1ccccc1)oc1ccccc12` (stereo unspecified), the delta Cp (YB-1 minus CDIP) was inactive: 0.154.

For `O=C(OC1CN2CCC1CC2)c1ccc(Cl)cc1` (stereo unspecified), the delta Cp (YB-1 minus CDIP) is inactive: -0.497.

Take `Cc1ccc(C(=O)OC2CN3CCC2CC3)cc1` (stereo unspecified): the delta Cp (YB-1 minus CDIP) is inactive: -0.153.

Take `O=P1(Nc2ccccn2)COc2ccccc2OC1`: the delta Cp (YB-1 minus CDIP) was inactive: -0.523.

Turning to `C/C1=C2N=C(/C=C3N=C(/C(C)=C4\[N-][C@@](C)([C@@H]5N=C1[C@](C)(CCC(=O)NCC(C)OP(=O)(O)O[C@@H]1[C@H](O)[C@H](n6cnc7cc(C)c(C)cc76)O[C@H]1CO)[C@H]5CC(N)=O)[C@@](C)(CC(N)=O)[C@@H]4CCC(N)=O)[C@@](C)(CC(N)=O)[C@@H]\3CCC(N)=O)C(C)(C)[C@@H]/2CCC(N)=O.[C-]#N.[Co+3]` (stereo partly specified), the delta Cp (YB-1 minus CDIP) is inactive: -0.0935.

The values above are taken from PubChem BioAssay AID434959 (Broad Institute, 2010).
